Molecular target: Thioredoxin reductase (Homo sapiens, UniProt Q16881+Q9NNW7+Q86VQ6)
Experiment: Inhibition of human TrxR
Type: protein assay

Sequences of proteins named here, by UniProt entry; tags and fusion partners are left off. Residues count along the entry.
UniProt Q16881, whole entry: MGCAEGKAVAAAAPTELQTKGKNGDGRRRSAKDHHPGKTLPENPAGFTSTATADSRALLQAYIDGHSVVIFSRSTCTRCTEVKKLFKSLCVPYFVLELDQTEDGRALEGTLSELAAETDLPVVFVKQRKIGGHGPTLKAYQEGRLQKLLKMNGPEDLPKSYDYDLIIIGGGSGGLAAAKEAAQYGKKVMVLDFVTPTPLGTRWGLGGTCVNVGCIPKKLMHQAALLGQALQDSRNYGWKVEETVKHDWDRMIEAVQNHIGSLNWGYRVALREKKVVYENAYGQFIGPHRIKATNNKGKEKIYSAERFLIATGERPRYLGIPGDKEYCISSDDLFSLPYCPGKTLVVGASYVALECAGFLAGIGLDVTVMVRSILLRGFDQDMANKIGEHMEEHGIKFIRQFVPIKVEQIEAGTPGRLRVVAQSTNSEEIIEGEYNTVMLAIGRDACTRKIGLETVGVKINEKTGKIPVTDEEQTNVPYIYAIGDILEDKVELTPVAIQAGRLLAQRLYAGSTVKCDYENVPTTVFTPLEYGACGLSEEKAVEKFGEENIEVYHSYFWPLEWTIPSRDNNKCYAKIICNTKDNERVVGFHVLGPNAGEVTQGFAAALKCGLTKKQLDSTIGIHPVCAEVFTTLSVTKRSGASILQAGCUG
UniProt Q9NNW7, 37-524 limits assumed: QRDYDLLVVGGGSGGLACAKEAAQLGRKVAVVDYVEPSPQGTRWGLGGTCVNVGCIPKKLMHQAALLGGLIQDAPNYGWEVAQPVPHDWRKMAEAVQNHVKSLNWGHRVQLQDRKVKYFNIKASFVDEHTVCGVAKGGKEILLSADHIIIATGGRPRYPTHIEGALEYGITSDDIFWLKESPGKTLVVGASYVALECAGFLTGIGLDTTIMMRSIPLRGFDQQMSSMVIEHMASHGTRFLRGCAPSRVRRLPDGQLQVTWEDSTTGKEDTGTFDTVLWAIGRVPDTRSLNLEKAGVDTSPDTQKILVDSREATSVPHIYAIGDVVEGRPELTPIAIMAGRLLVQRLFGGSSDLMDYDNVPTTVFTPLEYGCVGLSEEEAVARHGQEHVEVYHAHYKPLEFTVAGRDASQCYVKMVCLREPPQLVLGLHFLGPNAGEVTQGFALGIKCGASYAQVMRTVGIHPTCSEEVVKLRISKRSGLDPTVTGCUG
UniProt Q86VQ6, whole entry: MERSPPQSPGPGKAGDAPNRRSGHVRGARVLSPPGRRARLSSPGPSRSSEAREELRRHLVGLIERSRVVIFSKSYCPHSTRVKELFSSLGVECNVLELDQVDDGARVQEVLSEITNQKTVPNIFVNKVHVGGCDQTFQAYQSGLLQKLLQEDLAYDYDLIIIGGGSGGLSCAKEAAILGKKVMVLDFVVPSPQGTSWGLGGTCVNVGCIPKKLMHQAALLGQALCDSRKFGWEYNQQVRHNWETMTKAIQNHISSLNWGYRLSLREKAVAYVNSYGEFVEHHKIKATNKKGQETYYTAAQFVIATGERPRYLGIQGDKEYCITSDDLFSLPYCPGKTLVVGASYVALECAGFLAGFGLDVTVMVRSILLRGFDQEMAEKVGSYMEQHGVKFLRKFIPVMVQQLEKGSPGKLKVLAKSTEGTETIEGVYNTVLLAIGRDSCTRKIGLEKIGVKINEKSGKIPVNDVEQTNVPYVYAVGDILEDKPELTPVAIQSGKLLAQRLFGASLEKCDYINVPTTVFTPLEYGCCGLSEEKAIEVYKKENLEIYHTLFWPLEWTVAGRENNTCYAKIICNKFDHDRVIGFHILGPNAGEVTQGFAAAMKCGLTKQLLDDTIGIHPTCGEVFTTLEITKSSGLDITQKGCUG

O=[N+]([O-])c1cc([N+](=O)[O-])c2nsnc2c1
IC50: 2 µM

Reference: ChEMBL document CHEMBL1146972, “Specific inhibitors of Plasmodium falciparum thioredoxin reductase as potential antimalarial agents” (Bioorg Med Chem Lett, 2006)
